pKd: −log10 of the molar value.
Target: T1, bovine serum albumin (BSA) (Bos taurus, UniProt P02769)
T1 construct: purchased Sigma-Aldrich (St. Louis, MO)
Test: Label-free differential scanning fluorimetry, equilibrium-based binding model near BSA melting temperature
Method: Bovine serum albumin (lyophilized powder, 99% fatty acid free) was obtained from Sigma-Aldrich (St. Louis, MO). A BSA concentration of 10 μM in pH 7.4 phosphate buffered saline (PBS) was used in each experiment. The solution of BSA was kept at 4 °C prior to use.
Experiments were conducted using a Tycho NT.6 differential scanning fluorimeter (NanoTemper, Munich, Germany). […] Solutions were prepared a day in advance of the experiment and stored at 4 °C. Immediately prior to analysis, each sample was loaded into a 1 mm diameter glass capillary and placed in the instrument. […] Fluorescence intensity was measured at 0.1 °C intervals at emission wavelengths of 330 and 350 nm. The ratio of the intensity at these wavelengths, I350/I330, was used to account for blue shifts in the emission peak wavelengths with increasing temperature. The minimum value of the first derivative of the I350/I330 curve with respect to temperature, denoting the midpoint of the melting transition where the fraction of folded to unfolded protein is 1, was taken as the melting temperature Tm. Each experiment was performed in triplicate.
As described by Eftink and Ghiron[44], baseline subtraction of the raw fluorescence intensity data collected at 350 nm was performed at both high and low temperatures. The plots were then normalized by dividing by the maximum intensity value. […]

Amino acid sequences for entries named in this document (tags omitted). Residues count along the entry.
UniProt P02769, 25-607: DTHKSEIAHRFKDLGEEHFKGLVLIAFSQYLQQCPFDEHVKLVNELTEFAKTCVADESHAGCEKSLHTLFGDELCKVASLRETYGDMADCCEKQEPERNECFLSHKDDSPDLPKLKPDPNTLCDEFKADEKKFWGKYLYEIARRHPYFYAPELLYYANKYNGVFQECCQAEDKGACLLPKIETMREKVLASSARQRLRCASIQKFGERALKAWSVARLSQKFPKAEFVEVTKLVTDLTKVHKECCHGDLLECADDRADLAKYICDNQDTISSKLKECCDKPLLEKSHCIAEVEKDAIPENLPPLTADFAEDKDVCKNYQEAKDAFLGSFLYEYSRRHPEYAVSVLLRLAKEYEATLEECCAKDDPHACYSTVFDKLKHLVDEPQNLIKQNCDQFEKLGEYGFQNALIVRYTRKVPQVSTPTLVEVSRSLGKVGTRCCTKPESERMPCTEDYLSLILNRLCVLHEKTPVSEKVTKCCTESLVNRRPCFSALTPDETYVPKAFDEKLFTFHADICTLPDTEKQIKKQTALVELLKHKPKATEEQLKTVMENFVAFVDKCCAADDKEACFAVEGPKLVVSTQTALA

SMILES	pKd
O=C(O)C(F)(F)C(F)(F)C(F)(F)C(F)(F)C(F)(F)C(F)(F)C(F)(F)C(F)(F)F [PFNA, Perfluorononanoic acid]	5.98
O=S(=O)(O)C(F)(F)C(F)(F)C(F)(F)C(F)(F)C(F)(F)C(F)(F)C(F)(F)C(F)(F)F [PFOS, Sodium perfluorooctanesulfonate]	4.44
